Test results reported in ChEMBL document CHEMBL4354843, “Structure-Based Design of a Potent and Selective Covalent Inhibitor for SRC Kinase That Targets a P-Loop Cysteine” (J Med Chem, 2020).
The source made the active and inactive calls. The calls are words filed in the database; no cut-off is given here.

Amino acid sequences for entries named in this document (tags omitted).
UniProt P07947, whole entry, looked up: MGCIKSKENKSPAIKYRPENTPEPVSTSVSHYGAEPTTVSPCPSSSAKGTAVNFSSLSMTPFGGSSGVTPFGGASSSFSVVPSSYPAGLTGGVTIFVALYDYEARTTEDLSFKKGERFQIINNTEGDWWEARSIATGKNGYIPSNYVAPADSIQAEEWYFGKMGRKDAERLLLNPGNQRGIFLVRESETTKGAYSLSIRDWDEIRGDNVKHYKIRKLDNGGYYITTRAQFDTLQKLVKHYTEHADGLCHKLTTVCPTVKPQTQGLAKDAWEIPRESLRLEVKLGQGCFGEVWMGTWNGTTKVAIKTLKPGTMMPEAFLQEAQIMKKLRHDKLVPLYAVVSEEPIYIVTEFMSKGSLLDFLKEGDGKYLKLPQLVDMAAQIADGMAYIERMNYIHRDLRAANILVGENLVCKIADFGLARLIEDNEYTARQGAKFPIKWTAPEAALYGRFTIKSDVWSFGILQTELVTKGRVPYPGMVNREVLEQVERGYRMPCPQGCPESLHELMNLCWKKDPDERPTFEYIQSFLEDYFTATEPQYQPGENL

Columns and labels:
[1] = biological target: Tyrosine-protein kinase Yes (Homo sapiens) (UniProt P07947); details: NCI-H1975, 1 uM
[2] = biological target: Tyrosine-protein kinase Yes (Homo sapiens) (UniProt P07947); details: HCC827, 1 uM

Q: With `C=CC(=O)Nc1ccccc1Nc1nc(Nc2ccc(N3CCN(C)CC3)cc2)ncc1C(=O)Nc1c(C)cccc1Cl` as the compound, how does the inhibition [1] read?
A: Its inhibition is “Active”.

Q: And the inhibition [2]?
A: Its inhibition is “Active”.
